Chains of the proteins cited; added tags and fusions are not shown.
UniProt P25099, whole entry: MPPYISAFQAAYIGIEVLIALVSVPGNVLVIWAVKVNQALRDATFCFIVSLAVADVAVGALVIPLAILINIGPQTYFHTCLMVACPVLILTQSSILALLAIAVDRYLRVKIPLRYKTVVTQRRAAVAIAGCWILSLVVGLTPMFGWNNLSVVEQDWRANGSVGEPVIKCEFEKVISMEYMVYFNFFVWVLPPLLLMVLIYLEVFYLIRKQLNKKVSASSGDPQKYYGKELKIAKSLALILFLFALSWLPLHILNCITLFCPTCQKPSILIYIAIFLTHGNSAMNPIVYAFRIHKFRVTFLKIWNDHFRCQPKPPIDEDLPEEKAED

In BindingDB's records for doi:10.1021/jm9905965 (National Institute of Diabetes, 2000):

Biological target: Adenosine receptor A1 (Rattus norvegicus, UniProt P25099)

## OC[C@H]1O[C@@H](n2cnc3c(NCc4cccc(I)c4)nc(Cl)nc32)[C@H](O)[C@@H]1O [(2R,3R,4S,5R)-2-[2-Chloro-6-(3-iodo-benzylamino)-purin-9-yl]-5-hydroxymethyl-tetrahydro-furan-3,4-diol]
  Ki: 0.019 µM
